# Measured affinities in a library of Ab-95 light chain variants

Source: Engelhart et al. 2022 (doi:10.1038/s41597-022-01779-4), MIT Lincoln Laboratory and A-Alpha Bio; data file from the FLAb repository.

All variants were tested on one target, the spike HR2 peptide PDVDLGDISGINAS (SARS-CoV-2).

Parent scFv Ab-95: VH joined to VL by a 15-residue (Gly4Ser)3 linker. Changes lie in the light chain CDRs alone.
VH: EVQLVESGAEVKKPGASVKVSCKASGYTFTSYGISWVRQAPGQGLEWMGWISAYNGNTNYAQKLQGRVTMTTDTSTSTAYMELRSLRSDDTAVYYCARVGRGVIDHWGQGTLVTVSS
VL: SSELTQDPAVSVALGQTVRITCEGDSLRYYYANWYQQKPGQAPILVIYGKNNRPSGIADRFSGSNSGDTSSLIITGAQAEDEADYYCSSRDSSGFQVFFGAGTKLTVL

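The parent was found by panning a naive human phage display library on the peptide. Variants in AAYL52 differ from the parent at up to three CDR positions; double and triple changes were sampled at random. Affinity was read by AlphaSeq, a pooled yeast mating assay with surface-displayed partners. Binding brings cells together so that they mate, and sequencing counts the barcode pairs among the diploids. Each replicate has its own calibration line, from reference interactions of the BCL2 family. Each pool was mated in three replicate cultures.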

The parent's light chain CDRs are EGDSLRYYYAN, GKNNRPS, SSRDSSGFQVF; each variant's own CDRs replace them letter for letter.
Scale: log10 of Kd in nM, estimated from mating counts; low values are strong binders.
"ND" marks a missing value. The strain was present, yet no cells mated with the target were sequenced in that replicate, which points to weak or no binding.
For reference, the parent read 2.31 as the reference entry and 2.25 as a member of this library.

CDR-L1,CDR-L2,CDR-L3,"replicates, log10 nM",signal with controls
EGDSLRYYYAN,GKNNRQS,SSRDSSGFQMF,ND / ND / ND,3 of 9 (4.51)
EGDELRCYYAN,GKNNRPS,SSEDSSGFQVF,ND / ND / ND,2 of 9 (4.05)
EGDSQRYYYKN,GMNNRPS,SSRDSSGFQVF,2.40 / 2.86 / 2.16,4 of 9 (4.08)
EGDSLRYYYAN,GKNNRPM,SSRVSSGFQVF,2.66 / 2.91 / 2.71,2 of 9 (3.92)
EGDMLRYEYAN,GKNNRPS,SSRDSSGIQVF,2.07 / 1.93 / 1.56,2 of 9 (4.13)
EGDSLRYYRAN,GKNNRPS,SSRDTSGFQVF,ND / ND / ND,0 of 9
EGGSLRYCYAN,GKNNRPS,SSRDDSGFQVF,2.81 / 3.35 / 3.74,5 of 9 (3.73)
ENDWLRYYYMN,GKNNRPS,SSRDSSGFQVF,4.31 / 4.47 / ND,2 of 9 (4.40)
ELDSLRYYYAN,GKDNPPS,SSRDSSGFQVF,3.91 / 4.81 / 4.28,2 of 9 (3.36)
EGDSLRYYYAN,GKNNRPS,SSGDSSGFNVF,2.24 / 2.57 / 2.06,7 of 9 (4.03)
EGDLLEYYYAT,GKNNRPS,SSRDSSGFQVF,3.34 / ND / ND,2 of 9 (3.98)
EGDSLRYYYAN,GKNNRPL,SSLDSSGFQVH,5.43 / 2.75 / 4.25,1 of 9 (3.47)
EGDSLRYYRAN,GKNNGCS,SSRDSSGFQVF,5.26 / 4.63 / 3.58,3 of 9 (3.64)
EGDSGSYYYAN,GKNNRPS,SSRDWSGFQVF,ND / ND / ND,3 of 9 (3.74)
EGDSLRYVYAN,GKNNRPS,DSRDSSGFQIF,3.42 / 3.03 / 3.27,2 of 9 (5.27)
EGGSLRNYYAN,GKMNRPS,SSRDSSGFQVF,3.26 / 2.94 / 4.03,2 of 9 (3.63)
EGDSIRYVYAN,GKNNRPS,SSRDSQGFQVF,2.52 / 3.03 / 3.44,3 of 9 (3.66)
EGDSLRYYYAN,GKNNRPS,SSNNASGFQVF,2.67 / 2.54 / 2.17,5 of 9 (3.56)
EGDSLRYYKAN,GDNNRPS,SSRDSSGLQVF,1.91 / 2.14 / 1.69,2 of 9 (3.67)
EGDRLRPYYAN,GKNNRPS,SSFDSSGFQVF,4.14 / 3.11 / 3.81,3 of 9 (3.87)
EGDSTRGYYAN,GKNNMPS,SSRDSSGFQVF,ND / ND / ND,1 of 9 (3.63)
EGDSVRYYYAN,LKNNRPS,SSRDSSGFQVY,5.03 / ND / ND,5 of 9 (3.85)
NGDSLRYYYAN,GKNNRPS,SSYDSSGFQVV,2.23 / 2.02 / 1.32,4 of 9 (4.31)
EGDSRRYYYAN,DKNNRPS,SSRDSSGFQHF,3.58 / 5.81 / ND,3 of 9 (3.66)
EGDSLRYYYAN,GKNNNPS,HSRDSSGFQLF,ND / 3.19 / ND,1 of 9 (3.26)
EGDSLRYYYAN,GKNQRPS,SQRDSSGFQPF,ND / ND / ND,3 of 9 (3.47)
EGDSLRYDYAN,GKNNRPS,SSRDNSGFVVF,3.33 / ND / ND,0 of 9
EGNSKRYYYAN,GKNNRPS,SSRDSSGFQVF,2.61 / 1.95 / 3.18,2 of 9 (3.21)
EGISLRYHYAN,GKNNRPS,SSRDSSGFQVF,1.39 / 1.26 / 1.03,1 of 9 (5.17)
EGDSLRYYQAK,GKNNRPS,DSRDSSGFQVF,4.97 / 4.68 / ND,5 of 9 (4.39)
EGDSLRYYYAN,GKNNRPD,SPRDSSGFQVF,2.41 / 2.83 / 3.68,2 of 9 (3.99)
MGDSLRYYHAN,GKNNRPS,SSRDSSGFQVE,2.80 / 2.76 / 1.95,0 of 9
EHDSLRVYYAN,GKNRRPS,SSRDSSGFQVF,4.44 / 4.84 / ND,5 of 9 (4.12)
EGDSLRYMYDN,GKNNRPS,SSRDSSGFQVY,ND / 4.66 / ND,4 of 9 (4.08)
EMDWLRYYYAN,GKNNRPS,SSDDSSGFQVF,3.05 / ND / 3.65,2 of 9 (3.63)
EGDSLRYYYAN,GKCNRPS,SSRDSSGFKVD,3.98 / ND / ND,2 of 9 (3.73)
EGDSLIYYYAN,GKNNRPW,SSRDSSGFQIF,5.16 / 3.40 / 3.35,0 of 9
EGNSYRYYYAN,GKNNRPS,SSMDSSGFQVF,ND / ND / 4.54,2 of 9 (4.27)
EGDSERYYCAN,GKNNRPS,SSVDSSGFQVF,3.96 / 3.81 / 3.09,1 of 9 (2.92)
EGDSLRYYYPN,GKNNIPS,SSRDCSGFQVF,3.84 / ND / 3.35,1 of 9 (2.98)
EGDCLRYYYAN,FKNNRPS,SSRFSSGFQVF,3.71 / 4.15 / ND,3 of 9 (3.73)
EGDSLRYYMAN,GKNNRPS,SSRDSTGFQVF,1.81 / 1.42 / 1.04,5 of 9 (4.24)
EGDSLRYYYAN,GKNNGPT,SCRDSSGFQVF,3.35 / 3.88 / ND,5 of 9 (4.05)

A selection of 2 entries from above:

{"CDR-L1": "EHDSLRVYYAN", "CDR-L2": "GKNRRPS", "CDR-L3": "SSRDSSGFQVF", "replicates, log10 nM": "4.44 / 4.84 / ND", "signal with controls": "5 of 9 (4.12)"}
{"CDR-L1": "EGDLLEYYYAT", "CDR-L2": "GKNNRPS", "CDR-L3": "SSRDSSGFQVF", "replicates, log10 nM": "3.34 / ND / ND", "signal with controls": "2 of 9 (3.98)"}

Background: pairings of library AAYL52 with three empty control strains gave a value in 28% of cases (median 3.91, 5th percentile 2.90). Values in that range, when seen in few replicates, are hard to tell from nonspecific mating. For each scFv, signals with the empty controls are counted beside the result, with their mean in brackets.